Data reported in PMC3639985, “Differential Ligand Binding Affinities of Human Estrogen Receptor-α Isoforms” (PLoS ONE, 2013).

Sequences of proteins named here, by UniProt entry; tags and fusion partners are left off. Residues count along the entry.
UniProt P03372, whole entry: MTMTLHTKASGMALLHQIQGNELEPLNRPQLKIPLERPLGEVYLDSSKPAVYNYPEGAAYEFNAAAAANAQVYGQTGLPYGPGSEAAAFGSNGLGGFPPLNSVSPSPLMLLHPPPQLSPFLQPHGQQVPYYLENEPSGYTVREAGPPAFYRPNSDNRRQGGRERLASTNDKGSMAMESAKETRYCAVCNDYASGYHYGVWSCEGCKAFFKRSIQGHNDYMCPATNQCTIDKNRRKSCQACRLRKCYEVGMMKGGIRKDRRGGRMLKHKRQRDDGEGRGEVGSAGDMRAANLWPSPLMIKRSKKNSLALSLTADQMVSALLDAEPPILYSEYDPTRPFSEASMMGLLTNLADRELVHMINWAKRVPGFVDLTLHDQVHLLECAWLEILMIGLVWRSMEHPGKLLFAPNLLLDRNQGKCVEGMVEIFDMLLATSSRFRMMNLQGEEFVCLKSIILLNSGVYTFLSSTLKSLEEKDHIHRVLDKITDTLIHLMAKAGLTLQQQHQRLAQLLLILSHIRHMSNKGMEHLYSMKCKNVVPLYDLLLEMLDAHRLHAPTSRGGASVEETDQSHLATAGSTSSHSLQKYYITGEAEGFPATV
UniProt P03372, 174-595: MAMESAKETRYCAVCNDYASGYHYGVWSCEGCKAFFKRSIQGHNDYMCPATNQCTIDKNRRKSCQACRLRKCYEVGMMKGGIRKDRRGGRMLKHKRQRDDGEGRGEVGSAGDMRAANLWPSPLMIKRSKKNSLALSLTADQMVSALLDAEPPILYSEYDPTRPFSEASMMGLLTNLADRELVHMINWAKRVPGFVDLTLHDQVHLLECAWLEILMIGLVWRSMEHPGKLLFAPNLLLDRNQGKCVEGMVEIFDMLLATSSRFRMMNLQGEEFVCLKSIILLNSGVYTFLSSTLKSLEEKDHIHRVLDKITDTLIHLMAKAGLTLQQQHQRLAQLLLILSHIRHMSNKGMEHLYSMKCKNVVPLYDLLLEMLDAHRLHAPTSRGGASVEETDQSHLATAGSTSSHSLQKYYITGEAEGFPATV

Experiments:
human ER66 = human ER66 (Homo sapiens, UniProt P03372); assay: Competitive [3H]-17β-estradiol ligand binding assay, ER66; conditions: read-out: IC50 ER66
human ER46 = human ER46 (Homo sapiens, UniProt P03372); assay: Competitive [3H]-17β-estradiol ligand binding assay, ER46; conditions: read-out: IC50 ER46

Substance: methyl-piperidino-pyrazole dihydrochloride [MPP]
- IC50 (human ER66): 11.5 nM
- IC50 (human ER46): 3.53 nM
